Measurements taken from PubChem BioAssay AID504357 (The Scripps Research Institute Molecular Screening Center, 2011).
Only a part is listed here, and it is no random draw. The source made the active and inactive calls. No stated cut-off is given here; in the data, active means inhibition above about 22% (passing the limit was not always enough); inactive means the rest.

Amino acid sequences for entries named in this document (tags omitted).
UniProt P35372, whole entry, looked up: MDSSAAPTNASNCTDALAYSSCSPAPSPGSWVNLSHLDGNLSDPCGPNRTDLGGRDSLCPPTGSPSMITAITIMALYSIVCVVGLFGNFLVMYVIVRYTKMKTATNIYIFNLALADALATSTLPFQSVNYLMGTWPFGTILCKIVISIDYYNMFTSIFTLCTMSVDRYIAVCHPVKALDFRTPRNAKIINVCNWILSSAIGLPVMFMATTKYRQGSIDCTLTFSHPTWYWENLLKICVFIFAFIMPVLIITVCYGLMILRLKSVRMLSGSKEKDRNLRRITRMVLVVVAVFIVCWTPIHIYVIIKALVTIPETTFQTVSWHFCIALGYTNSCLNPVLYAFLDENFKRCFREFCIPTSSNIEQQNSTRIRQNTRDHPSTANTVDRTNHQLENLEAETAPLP
UniProt P41143, whole entry, looked up: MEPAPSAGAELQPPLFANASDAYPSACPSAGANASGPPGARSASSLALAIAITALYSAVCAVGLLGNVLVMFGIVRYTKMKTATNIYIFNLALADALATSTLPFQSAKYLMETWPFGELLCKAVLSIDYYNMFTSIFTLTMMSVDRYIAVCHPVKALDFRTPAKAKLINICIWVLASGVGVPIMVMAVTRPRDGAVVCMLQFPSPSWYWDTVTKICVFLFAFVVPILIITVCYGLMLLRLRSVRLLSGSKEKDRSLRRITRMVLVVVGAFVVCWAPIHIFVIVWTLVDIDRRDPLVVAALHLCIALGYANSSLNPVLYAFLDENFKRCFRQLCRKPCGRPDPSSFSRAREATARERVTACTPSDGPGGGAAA

What follows are compounds tested against Mu-type opioid receptor (Homo sapiens) + Delta-type opioid receptor (Homo sapiens) (UniProt P35372+P41143) (assay: OPRM1-OPRD1 heterodimer inverse agonism – cell-based, luminescence, primary screen (AID 504357;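 further: 0% = cells with DMSO and 100% = wells without cells with DMSO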)). Conditions: cell-based MOR-DOR heterodimer luminescence, at 9.3 µM, active compounds read high.

Compound	inhibition
c1nnnn1CCn1cnnn1	inactive: 9.06%
CCN(CC)C(=O)CSc1nc2ccccc2n1CC(=O)N1CCN(c2ccccc2OC)CC1	inactive: -4.56%
O=C(CCCCCNC(=O)N1CCn2c1nc1ccccc12)NCc1ccccc1	inactive: 19.9%
CCNC(=O)Cn1cnc2c1c(=O)n(C)c(=O)n2C	inactive: -9.57%
CSc1nc2ccccc2n1CC(=O)Nc1cc(C(F)(F)F)ccc1N1CCOCC1	inactive: 22.4%
CCOc1ccc(CCNC(=O)Cn2c(-c3nonc3N)nc3ccccc32)cc1OCC	inactive: 10.5%
CCN(CC)CCn1c(NCc2nc3ccccc3n2Cc2ccccc2)nc2ccccc21	inactive: -90%
CN(C)Cc1ccc(-c2nc3cccc4c3n2CCNC4=O)cc1	inactive: 17%
COc1ccc(-c2ccc3c(c2)[C@@H]2C[C@H](N(C)C(=O)C(C)(C)C)[C@H]([C@H](C)O)C(=O)N2CC3)cc1	inactive: -2.96%
O=C(Cn1c(CO)nc2ccccc21)Nc1cc(C(F)(F)F)ccc1N1CCOCC1	inactive: -0.9%
Cc1ccc(NC(=O)Cn2c(/C=C/c3ccccc3)nc3ccccc32)cc1C	inactive: -13.7%
CCN(C(=O)Cn1c(Cl)nc2c1c(=O)n(C)c(=O)n2C)C1CCCCC1	inactive: 5.23%
CCCC(=O)Nc1ccc2c(c1)nc1n2CCN(C2CCCCC2)C1	inactive: 6.14%
CC(C)[C@H](NC(=O)N1CCn2c1nc1ccccc12)C(=O)N[C@@H](Cc1ccccc1)C(=O)O	inactive: 13.5%
CCOC(=O)Cn1c(=O)oc2cc(S(=O)(=O)N3CCn4c3nc3ccccc34)ccc21	inactive: -0.16%
O=C(Cn1cnc2ccccc21)N/N=C/c1ccccc1	inactive: 6.65%
Cc1ccc(-c2csc(N3CCC[C@@H]3C(=O)NCCn3c(-c4ccncc4)nc4ccccc43)n2)cc1	inactive: -21.7%
CCS(=O)(=O)c1nc2ccccc2n1CC(=O)N1CCCCC1	inactive: 17.4%
CCc1ccc(NC(=O)Cn2cnc3c(=O)n(C)c(=O)n(C)c32)cc1	inactive: -3.33%
CC(C)C(=O)NC(Sc1ccccc1)C(Cl)(Cl)Cl (centres undefined)	inactive: -18.5%
c1ccc(CNc2nc3ccccc3n2CCN2CCOCC2)nc1	inactive: 6.93%
O=P(Nc1nccs1)(c1ccccc1)c1ccccc1	inactive: 13.6%
Cn1c(=O)n(CC(=O)N2CCOCC2)c2ccccc21	inactive: 7.75%

Compound	inhibition
CC(C)c1ccccc1NC(=O)Cn1c(-c2ccccc2Cl)nc2ccccc21	inactive: 11.7%
CC(C)C[C@H](NC(=O)N1CCn2c1nc1ccccc12)C(=O)N[C@H](Cc1ccccc1)C(=O)O	inactive: 11.8%
CCC(C(=O)NC1CCCCC1)n1c(SCc2cccc(F)c2)nc2ccncc21 (centres undefined)	inactive: -4.05%
CC(/C=N/NC(=O)Cn1cnc2c1c(=O)n(C)c(=O)n2C)=C\c1ccccc1	inactive: 8.43%
O=C(Cn1cnc2c(OCc3ccccc3)ncnc21)NCC1CCCO1 (centres undefined)	inactive: 15.5%
Cn1c(=O)c2ncn(CC(=O)N/N=C/c3ccco3)c2n(C)c1=O	inactive: 4.96%
COc1ccc(OCC(O)Cn2c(=N)n(CCN3CCCCC3)c3ccccc32)cc1 (centres undefined)	inactive: 11.4%
C[C@@H](NC(=O)Cn1cnc2c(OCc3ccccc3)ncnc21)c1cccc2ccccc12	inactive: -13.1%
N#CCCN1CCn2c1nc1ccccc12	inactive: 7%
O=C(c1cccs1)N1CCn2c1nc1ccccc12	inactive: 8.41%
COc1ccc(NC(=O)CN(C)C(=O)Cn2cnc3c2c(=O)n(C)c(=O)n3C)cc1	inactive: 6.52%
CC(C)C[C@H](NC(=O)N1CCn2c1nc1ccccc12)C(=O)NC1CC1	inactive: 9.74%
CCN(CC)CCn1c(=N)n(CC(O)c2ccc(OC)c(OC)c2)c2ccccc21 (centres undefined)	inactive: -28.8%
CCOCCn1c(=O)c2c(nc3n2CCN3c2ccc(C)cc2)n(C)c1=O	inactive: 13.5%
Cc1ccccc1Oc1ccc2c(c1)[C@@H]1C[C@H](N(C)C(=O)NC3CCCCC3)[C@H]([C@H](C)O)C(=O)N1CC2	inactive: 2.93%
CC1CCCC(C)N1C(=O)Cn1c(SCC(=O)Nc2ccc3c(c2)OCO3)nc2ccccc21 (centres undefined)	inactive: 5.66%
Cn1c(=O)c2c(ncn2CC(=O)N2CCN(S(=O)(=O)c3ccccc3)CC2)n(C)c1=O	inactive: 7.95%
c1ccc2c(c1)nc1n2CCN1CCN1CCCC1	inactive: 13.5%
COC(=O)[C@H](Cc1ccccc1)NC(=O)Cn1cnc2c(NCc3ccccc3)ncnc21	inactive: 17.6%
CC(NC(=O)Cn1c(NCCO)nc2ccccc21)c1ccccc1 (centres undefined)	inactive: 10.2%
Cn1c(=O)c2c(nc(CN3CCN(Cc4ccccc4)CC3)n2CCN2CCOCC2)n(C)c1=O	inactive: 9.49%
COc1ccc(OC)c(CNc2nc3ccccc3n2CCN2CCCCC2)c1	inactive: 3.13%
O=C(Cn1cnc2ccccc21)Nc1ccccc1-c1ccccc1	inactive: 2.25%

Compound	inhibition
CCSc1nc2ccccc2n1CC(N)=O	inactive: 10.2%
Cc1ccc2c(c1)C1CN(C)CCC1N2S(=O)(=O)c1ccc(C(C)C)cc1 (centres undefined)	inactive: -7.36%
Brc1cccc(CNc2nc3ccccc3n2CCN2CCCCC2)c1	inactive: 7.41%
CCC(C)N(C(=O)Cn1c(Cl)nc2c1c(=O)n(C)c(=O)n2C)C1CCS(=O)(=O)C1 (centres undefined)	inactive: 5.48%
COc1ccc(CNc2nc3ccccc3n2CCN2CCCCC2)cc1	inactive: 7.16%
COCCN1CCn2c(nc3cc(NS(C)(=O)=O)ccc32)C1	inactive: 6.55%
Cc1cccc(OCC(O)Cn2c(=N)n(CCN3CCCCC3)c3ccccc32)c1 (centres undefined)	inactive: -5.04%
O=C(Cn1cnc2ccccc21)N/N=C/c1ccco1	inactive: 13.8%
CCc1cccc(C)c1NC(=O)CSc1nc2ccccc2n1CC(=O)N(C)C	inactive: 10.8%
CCN1C(=O)CC(n2c(C)nc3ccccc32)C1=O (centres undefined)	inactive: 11.9%
Cn1c(=O)c2c(nc(CN3CCN(C(c4ccccc4)c4ccccc4)CC3)n2CC(N)=O)n(C)c1=O	inactive: -1.97%
CCOC(=O)c1cccc(NC(=O)Cn2cnc3c2c(=O)n(C)c(=O)n3C)c1	inactive: 6.26%
CC(=O)NC(C)c1nc2ccccc2n1CC(=O)NC(C)CCc1ccccc1 (centres undefined)	inactive: 4.45%
Nc1nonc1-c1nc2ccccc2n1CC(=O)N/N=C/c1ccc(-c2ccccc2C(=O)O)o1	inactive: 14.9%
COc1ccc(-c2nn(-c3ccccc3)cc2C(=O)N2c3ccc(C)cc3C3CN(C)CCC32)cc1 (centres undefined)	inactive: 0.01%
Cn1c(=O)[nH]c(=O)c2c1nc(N1CCCCCC1)n2CC(N)=O	inactive: 14.5%
CCCn1c(=O)c2c(nc3n2CCN3Cc2ccco2)n(C)c1=O	inactive: -1.72%
COc1ccc(C[C@H](C)NC[C@@H](O)c2ccc(O)c(NC=O)c2)cc1	inactive: 3.63%
COc1ccc(Cc2nnc(NC(=O)Cn3cnc4c3c(=O)n(C)c(=O)n4C)s2)cc1OC	inactive: 1.81%
CC(/C=N/NC(=O)Cn1cnc2ccccc21)=C\c1ccccc1	inactive: 3.21%
O=S(=O)(c1ccc(Cl)cc1)N1CCn2c1nc1ccccc12	inactive: 1.69%
CSCC[C@H](NC(=O)N1CCn2c1nc1ccccc12)C(=O)NCc1ccc2c(c1)OCO2	inactive: 6.09%
O=S(=O)(c1ccccc1)c1nnn2c1nc(NC1CCN(Cc3ccccc3)CC1)c1cc(Cl)ccc12	inactive: -102%

Compound	inhibition
CCOc1ccc(CNc2nc3ccccc3n2CCN2CCOCC2)cc1	inactive: -2.43%
O=C(NC1CCCCC1)C(c1ccccc1)N(Cc1ccco1)C(=O)Cn1cnc2ccccc21 (centres undefined)	inactive: 1.51%
CSCC[C@H](NC(=O)N1CCn2c1nc1ccccc12)C(=O)NC1CC1	inactive: 12.9%
Cc1ccc(C(=O)Cn2c(=N)n(CCN3CCOCC3)c3ccccc32)cc1	inactive: -31.5%
CCN(CC)c1ccc(NC(=O)Cn2c(C(C)NC(=O)c3ccc(C)cc3)nc3ccccc32)cc1 (centres undefined)	inactive: -8.31%
COC(=O)c1ccc(NC(=O)Cn2c(-c3nonc3N)nc3ccccc32)cc1	inactive: 13.5%
Cc1ccc(OCC(O)Cn2c(=N)n(CCN3CCOCC3)c3ccccc32)cc1 (centres undefined)	inactive: 3.57%
N=c1n(CCN2CCCCC2)c2ccccc2n1CC(O)COc1ccccc1 (centres undefined)	inactive: 7.8%
Cn1c(=O)[nH]c(=O)c2c1nc(CN1CCN(Cc3ccccc3)CC1)n2CC(N)=O	inactive: 14%
Cc1csc2ncnc(NC3CCN(Cc4ccccc4)CC3)c12	inactive: 1.52%
CCc1nc2c(n1)c1c(non1O)c1c2no[n+]1[O-]	inactive: -34.7%
O=[N+]([O-])c1cc([N+](=O)[O-])c(CCNc2ccccc2)c([N+](=O)[O-])c1	inactive: -35.6%
COC(=O)c1ccccc1NC(=O)Cn1cnc2cc(C)c(C)cc21	inactive: -2.42%
CSCC[C@H](NC(=O)N1CCn2c1nc1ccccc12)C(=O)N[C@H](Cc1ccccc1)C(=O)O	inactive: 16%
Cc1nc2ccccc2n1CC(=O)N/N=C/c1cccs1	inactive: 13.7%
O=[N+]([O-])c1ccc(NC2CCN(Cc3ccccc3)CC2)c([N+](=O)[O-])c1	inactive: 3.75%
CC1CC(C)CN(C(=O)Cn2c(-c3nonc3N)nc3ccccc32)C1 (centres undefined)	inactive: 8.58%
Cc1ccc(NP(=O)(Oc2ccccc2)Oc2ccccc2)nc1	inactive: 14.8%
Nc1nonc1-c1nc2ccccc2n1CC(=O)N1CCCCC1	inactive: -0.2%
Cc1ccc(C)c(CN2CCC(n3nnc4cc(F)ccc43)CC2)c1	inactive: -249%
